Activity calls are given as the source filed them. The rule behind the calls is not given here.
How the values were obtained:
Histone deacetylase 9 [1] = target: T1, Histone deacetylase 9 (Homo sapiens, UniProt Q9UKV0); conditions: 5 uM
Histone deacetylase 1 = Histone deacetylase 1 (Homo sapiens, UniProt Q13547); conditions: 5 uM
Histone deacetylase 4 [2] = target: T2, Histone deacetylase 4 (Homo sapiens, UniProt P56524); conditions: 10 uM
Histone deacetylase 5 [3] = target: T3, Histone deacetylase 5 (Homo sapiens, UniProt Q9UQL6); conditions: 5 uM
Histone deacetylase 4 [4] = target: T2, Histone deacetylase 4; conditions: 5 uM
[5] = target: Histone deacetylase 3/Nuclear receptor corepressor 2 (HDAC3/NCoR2) (Homo sapiens) (UniProt O15379+Q9Y618); conditions: 5 uM
[6] = target: T4, Polyamine deacetylase HDAC10 (Homo sapiens) (UniProt Q969S8); conditions: 5 uM
T4 sequence (whole entry): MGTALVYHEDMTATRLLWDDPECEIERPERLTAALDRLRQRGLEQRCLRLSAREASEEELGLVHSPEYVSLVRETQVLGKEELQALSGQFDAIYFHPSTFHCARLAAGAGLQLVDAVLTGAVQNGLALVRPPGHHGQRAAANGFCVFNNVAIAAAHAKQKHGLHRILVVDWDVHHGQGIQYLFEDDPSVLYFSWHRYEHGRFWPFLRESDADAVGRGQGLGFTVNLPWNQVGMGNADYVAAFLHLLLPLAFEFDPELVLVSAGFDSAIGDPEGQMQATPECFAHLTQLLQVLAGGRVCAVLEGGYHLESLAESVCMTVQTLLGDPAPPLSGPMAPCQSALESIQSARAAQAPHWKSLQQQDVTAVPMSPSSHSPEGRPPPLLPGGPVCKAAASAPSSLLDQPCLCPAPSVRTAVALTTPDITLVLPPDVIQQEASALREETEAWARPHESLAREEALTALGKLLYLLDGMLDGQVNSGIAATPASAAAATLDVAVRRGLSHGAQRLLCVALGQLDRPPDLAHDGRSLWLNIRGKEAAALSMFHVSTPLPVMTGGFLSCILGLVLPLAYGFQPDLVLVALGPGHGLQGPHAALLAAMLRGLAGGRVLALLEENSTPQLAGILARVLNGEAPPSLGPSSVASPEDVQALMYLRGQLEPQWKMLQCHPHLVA

By UniProt entry, the sequences of proteins in these tests, tags left out. Where a name states a change or a piece, a line headed by the entry shows the natural chain unless it says otherwise.
UniProt Q13547, whole entry: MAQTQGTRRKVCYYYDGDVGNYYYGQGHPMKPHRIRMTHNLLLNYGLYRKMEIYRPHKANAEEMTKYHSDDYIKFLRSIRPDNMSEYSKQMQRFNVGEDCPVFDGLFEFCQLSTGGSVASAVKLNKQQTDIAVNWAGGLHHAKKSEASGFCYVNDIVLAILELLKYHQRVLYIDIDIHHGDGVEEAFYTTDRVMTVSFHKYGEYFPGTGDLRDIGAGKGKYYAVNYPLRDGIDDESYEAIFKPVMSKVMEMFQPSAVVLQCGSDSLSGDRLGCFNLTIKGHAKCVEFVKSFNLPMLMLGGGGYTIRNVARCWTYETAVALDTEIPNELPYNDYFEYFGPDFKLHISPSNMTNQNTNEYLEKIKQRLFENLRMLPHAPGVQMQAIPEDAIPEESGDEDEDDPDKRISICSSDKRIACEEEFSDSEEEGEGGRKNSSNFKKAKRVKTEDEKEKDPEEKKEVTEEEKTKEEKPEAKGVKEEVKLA
UniProt P56524: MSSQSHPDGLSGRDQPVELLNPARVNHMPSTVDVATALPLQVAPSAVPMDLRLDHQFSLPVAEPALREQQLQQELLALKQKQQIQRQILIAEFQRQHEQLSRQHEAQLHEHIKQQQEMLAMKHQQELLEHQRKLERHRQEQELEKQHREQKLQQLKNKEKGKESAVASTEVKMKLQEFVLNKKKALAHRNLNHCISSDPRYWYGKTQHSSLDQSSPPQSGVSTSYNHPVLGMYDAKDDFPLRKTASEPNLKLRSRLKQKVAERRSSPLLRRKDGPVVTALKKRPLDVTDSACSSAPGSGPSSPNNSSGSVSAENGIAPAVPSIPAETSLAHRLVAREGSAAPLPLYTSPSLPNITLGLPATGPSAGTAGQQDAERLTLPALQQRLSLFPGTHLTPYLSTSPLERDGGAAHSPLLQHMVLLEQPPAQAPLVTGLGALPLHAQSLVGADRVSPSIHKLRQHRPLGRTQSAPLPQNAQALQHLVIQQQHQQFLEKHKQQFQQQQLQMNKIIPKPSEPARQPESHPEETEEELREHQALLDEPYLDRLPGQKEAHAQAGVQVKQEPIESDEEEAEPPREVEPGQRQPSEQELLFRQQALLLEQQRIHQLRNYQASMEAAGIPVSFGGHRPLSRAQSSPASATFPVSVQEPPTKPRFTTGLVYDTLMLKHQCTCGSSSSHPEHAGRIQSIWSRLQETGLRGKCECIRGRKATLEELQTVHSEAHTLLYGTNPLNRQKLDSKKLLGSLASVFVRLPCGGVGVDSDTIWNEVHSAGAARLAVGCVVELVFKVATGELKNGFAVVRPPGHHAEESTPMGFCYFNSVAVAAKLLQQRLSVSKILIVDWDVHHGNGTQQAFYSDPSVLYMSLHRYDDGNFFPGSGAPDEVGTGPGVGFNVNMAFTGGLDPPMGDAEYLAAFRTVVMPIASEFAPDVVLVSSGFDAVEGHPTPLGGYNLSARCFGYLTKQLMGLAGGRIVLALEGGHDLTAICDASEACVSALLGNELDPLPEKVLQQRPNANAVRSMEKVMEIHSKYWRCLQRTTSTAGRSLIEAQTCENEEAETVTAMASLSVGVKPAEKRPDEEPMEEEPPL
UniProt Q9UQL6: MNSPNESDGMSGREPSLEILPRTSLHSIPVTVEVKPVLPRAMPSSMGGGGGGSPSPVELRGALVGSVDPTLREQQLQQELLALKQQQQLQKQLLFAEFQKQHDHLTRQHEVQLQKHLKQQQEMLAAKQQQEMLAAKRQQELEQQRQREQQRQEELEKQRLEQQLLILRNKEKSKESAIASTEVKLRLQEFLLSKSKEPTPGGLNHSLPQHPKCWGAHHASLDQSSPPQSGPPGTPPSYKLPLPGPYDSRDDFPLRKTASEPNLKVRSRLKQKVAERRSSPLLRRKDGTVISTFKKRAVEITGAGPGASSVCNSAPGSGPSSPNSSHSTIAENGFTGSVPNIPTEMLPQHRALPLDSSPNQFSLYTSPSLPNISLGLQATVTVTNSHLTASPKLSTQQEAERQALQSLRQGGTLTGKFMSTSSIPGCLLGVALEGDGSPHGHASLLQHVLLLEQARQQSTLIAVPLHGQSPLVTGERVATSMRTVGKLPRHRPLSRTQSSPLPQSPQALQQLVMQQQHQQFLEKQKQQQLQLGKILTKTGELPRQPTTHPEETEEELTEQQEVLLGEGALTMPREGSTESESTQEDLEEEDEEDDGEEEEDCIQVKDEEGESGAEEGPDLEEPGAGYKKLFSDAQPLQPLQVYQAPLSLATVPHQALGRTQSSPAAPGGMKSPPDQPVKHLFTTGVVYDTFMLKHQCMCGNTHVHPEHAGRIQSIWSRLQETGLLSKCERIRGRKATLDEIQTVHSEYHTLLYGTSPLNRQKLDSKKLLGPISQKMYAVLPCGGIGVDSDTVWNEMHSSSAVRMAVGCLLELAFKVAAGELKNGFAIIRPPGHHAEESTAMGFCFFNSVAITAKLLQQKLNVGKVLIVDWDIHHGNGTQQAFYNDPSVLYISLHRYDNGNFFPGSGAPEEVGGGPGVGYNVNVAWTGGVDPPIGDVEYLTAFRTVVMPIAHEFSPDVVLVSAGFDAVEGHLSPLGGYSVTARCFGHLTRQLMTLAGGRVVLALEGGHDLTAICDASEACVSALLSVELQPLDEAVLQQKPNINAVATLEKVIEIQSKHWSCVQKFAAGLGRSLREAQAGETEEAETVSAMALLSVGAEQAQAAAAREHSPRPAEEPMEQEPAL
UniProt O15379: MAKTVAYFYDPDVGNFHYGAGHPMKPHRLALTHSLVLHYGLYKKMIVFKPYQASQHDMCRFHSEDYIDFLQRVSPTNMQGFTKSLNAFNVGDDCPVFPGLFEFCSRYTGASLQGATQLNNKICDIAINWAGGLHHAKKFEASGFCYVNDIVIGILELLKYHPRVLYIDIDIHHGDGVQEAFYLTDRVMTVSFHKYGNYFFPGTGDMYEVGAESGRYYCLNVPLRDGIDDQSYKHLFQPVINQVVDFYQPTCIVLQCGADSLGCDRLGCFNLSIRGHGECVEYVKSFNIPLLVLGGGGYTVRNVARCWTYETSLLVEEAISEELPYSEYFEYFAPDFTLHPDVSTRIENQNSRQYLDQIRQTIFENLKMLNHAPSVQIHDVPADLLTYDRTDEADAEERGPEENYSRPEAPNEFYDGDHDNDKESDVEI
UniProt Q9Y618: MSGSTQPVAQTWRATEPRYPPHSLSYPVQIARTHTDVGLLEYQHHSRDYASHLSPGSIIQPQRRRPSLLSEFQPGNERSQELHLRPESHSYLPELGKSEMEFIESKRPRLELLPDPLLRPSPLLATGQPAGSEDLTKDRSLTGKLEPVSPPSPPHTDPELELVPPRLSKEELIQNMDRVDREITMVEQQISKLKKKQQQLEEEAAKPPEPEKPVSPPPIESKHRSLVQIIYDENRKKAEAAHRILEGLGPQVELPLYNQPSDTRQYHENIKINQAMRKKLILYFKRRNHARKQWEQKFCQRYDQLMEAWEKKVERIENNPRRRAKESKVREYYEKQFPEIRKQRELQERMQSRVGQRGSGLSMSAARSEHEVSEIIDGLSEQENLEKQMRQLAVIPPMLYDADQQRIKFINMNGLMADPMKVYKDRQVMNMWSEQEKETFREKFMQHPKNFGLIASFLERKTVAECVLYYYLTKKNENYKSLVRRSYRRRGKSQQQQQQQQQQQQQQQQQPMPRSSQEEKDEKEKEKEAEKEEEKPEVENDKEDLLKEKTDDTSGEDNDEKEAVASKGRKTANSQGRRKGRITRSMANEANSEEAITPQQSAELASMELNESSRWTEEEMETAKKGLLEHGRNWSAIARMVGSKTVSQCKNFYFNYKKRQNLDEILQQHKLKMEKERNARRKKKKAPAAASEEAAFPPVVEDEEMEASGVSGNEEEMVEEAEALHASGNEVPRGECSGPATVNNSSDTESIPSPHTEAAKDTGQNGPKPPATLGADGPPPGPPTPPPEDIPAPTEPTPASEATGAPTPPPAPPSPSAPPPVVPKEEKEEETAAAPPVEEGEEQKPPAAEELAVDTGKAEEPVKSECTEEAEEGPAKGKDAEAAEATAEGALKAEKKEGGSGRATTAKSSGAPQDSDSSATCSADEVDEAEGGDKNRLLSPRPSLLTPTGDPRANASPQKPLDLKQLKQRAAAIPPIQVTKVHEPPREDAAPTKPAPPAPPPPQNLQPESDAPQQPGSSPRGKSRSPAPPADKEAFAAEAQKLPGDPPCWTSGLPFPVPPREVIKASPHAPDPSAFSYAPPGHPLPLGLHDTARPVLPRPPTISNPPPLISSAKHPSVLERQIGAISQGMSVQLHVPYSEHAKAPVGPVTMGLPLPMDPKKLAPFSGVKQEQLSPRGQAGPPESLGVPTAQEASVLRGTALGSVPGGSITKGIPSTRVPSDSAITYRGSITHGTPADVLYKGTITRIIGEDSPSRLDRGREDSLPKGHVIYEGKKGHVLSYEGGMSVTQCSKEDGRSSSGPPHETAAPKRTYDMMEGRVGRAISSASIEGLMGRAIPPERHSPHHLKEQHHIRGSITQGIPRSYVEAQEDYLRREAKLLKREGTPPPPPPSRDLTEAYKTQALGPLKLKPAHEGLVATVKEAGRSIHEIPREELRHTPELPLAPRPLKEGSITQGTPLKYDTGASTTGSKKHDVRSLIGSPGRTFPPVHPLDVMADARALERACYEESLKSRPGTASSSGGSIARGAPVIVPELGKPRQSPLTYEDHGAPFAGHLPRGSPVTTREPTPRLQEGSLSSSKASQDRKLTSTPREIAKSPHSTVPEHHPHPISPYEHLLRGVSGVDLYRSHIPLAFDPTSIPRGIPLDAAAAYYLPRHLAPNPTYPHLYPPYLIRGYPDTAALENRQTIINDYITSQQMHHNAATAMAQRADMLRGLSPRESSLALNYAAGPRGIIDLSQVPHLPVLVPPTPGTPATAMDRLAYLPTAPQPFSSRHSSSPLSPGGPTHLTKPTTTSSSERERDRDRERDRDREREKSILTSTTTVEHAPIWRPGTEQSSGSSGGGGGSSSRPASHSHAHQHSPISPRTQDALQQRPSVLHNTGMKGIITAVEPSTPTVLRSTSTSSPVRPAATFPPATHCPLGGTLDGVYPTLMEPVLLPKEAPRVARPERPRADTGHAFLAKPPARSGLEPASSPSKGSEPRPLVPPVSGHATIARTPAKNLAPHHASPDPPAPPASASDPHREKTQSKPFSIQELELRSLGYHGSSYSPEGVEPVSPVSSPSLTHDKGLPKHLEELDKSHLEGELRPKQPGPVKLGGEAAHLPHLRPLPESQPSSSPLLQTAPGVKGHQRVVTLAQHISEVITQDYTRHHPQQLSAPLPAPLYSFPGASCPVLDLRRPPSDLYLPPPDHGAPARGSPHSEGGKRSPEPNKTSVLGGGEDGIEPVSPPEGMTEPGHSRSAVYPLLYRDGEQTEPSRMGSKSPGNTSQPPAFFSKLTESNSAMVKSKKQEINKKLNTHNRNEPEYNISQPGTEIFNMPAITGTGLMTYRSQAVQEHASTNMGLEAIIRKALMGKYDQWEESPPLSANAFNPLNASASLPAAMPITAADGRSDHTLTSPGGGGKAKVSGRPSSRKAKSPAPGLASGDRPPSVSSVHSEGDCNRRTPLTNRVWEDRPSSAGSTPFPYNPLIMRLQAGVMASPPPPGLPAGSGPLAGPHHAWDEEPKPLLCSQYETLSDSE
UniProt Q92769, whole entry: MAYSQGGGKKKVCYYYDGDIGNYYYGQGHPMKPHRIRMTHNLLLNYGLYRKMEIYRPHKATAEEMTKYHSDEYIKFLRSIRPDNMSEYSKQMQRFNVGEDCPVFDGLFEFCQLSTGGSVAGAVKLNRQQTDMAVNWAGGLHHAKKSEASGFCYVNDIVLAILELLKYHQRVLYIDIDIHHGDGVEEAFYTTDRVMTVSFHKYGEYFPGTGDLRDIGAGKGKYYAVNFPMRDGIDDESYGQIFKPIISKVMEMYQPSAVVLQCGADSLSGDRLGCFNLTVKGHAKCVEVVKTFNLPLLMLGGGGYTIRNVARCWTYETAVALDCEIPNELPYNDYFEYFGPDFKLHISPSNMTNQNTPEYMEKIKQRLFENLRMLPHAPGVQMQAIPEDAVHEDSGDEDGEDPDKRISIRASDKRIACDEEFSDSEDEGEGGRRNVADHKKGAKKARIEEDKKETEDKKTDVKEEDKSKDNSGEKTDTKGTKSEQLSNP

[7] = target: T5, Histone deacetylase 8 (Homo sapiens) (UniProt Q9BY41); conditions: 5 uM
T5 sequence (whole entry): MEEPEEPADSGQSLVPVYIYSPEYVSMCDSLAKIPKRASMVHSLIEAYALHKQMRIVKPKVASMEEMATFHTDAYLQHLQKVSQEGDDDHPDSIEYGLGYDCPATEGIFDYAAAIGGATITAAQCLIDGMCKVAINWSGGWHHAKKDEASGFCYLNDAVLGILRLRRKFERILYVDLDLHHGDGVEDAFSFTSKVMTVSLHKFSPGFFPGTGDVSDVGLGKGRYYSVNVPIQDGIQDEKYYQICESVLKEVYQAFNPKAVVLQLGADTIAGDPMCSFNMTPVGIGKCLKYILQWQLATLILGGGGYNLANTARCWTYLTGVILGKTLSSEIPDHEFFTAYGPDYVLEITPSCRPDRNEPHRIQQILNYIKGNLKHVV

[8] = target: T6, Histone deacetylase 7 (Homo sapiens) (UniProt Q8WUI4); conditions: 5 uM
T6 sequence (whole entry): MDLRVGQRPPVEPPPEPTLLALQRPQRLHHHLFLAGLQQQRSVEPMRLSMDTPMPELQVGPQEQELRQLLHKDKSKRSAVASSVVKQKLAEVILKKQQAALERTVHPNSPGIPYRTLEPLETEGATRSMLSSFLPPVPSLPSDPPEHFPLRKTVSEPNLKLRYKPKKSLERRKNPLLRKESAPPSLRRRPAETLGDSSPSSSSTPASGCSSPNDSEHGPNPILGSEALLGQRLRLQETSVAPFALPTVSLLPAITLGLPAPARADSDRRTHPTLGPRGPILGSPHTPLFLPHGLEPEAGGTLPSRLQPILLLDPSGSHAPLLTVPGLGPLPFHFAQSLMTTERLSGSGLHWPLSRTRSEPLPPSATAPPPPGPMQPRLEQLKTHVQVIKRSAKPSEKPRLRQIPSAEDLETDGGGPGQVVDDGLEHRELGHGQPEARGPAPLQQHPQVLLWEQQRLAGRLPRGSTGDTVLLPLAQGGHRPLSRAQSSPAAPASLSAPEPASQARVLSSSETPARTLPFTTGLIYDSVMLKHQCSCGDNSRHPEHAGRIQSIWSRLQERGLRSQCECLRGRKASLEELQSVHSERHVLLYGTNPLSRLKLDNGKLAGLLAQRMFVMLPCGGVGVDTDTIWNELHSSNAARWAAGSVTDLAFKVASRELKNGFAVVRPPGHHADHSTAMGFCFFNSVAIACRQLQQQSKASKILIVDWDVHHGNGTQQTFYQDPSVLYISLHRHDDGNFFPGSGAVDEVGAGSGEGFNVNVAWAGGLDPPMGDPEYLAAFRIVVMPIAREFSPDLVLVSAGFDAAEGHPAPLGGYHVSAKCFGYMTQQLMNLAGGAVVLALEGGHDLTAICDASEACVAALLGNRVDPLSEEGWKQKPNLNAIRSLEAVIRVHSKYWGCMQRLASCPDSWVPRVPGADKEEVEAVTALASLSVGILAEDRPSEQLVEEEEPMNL

[9] = target: T7, Histone deacetylase 11 (Homo sapiens) (UniProt Q96DB2); conditions: 10 uM
T7 sequence (whole entry): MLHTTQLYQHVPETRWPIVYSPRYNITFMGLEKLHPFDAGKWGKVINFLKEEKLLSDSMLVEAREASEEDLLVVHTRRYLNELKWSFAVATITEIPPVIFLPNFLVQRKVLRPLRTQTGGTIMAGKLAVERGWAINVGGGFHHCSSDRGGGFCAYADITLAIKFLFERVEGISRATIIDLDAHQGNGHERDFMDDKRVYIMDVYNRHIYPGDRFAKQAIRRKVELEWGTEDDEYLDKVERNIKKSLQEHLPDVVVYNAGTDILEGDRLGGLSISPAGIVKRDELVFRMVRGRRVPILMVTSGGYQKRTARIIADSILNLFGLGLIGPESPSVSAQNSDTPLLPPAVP

Histone deacetylase 9 [10] = target: T1, Histone deacetylase 9; conditions: 10 uM
[11] = target: T6, Histone deacetylase 7 (Homo sapiens); conditions: 10 uM
[12] = target: T7, Histone deacetylase 11 (Homo sapiens); conditions: 5 uM
Histone deacetylase 2 = Histone deacetylase 2 (Homo sapiens, UniProt Q92769); conditions: 5 uM
Histone deacetylase 5 [13] = target: T3, Histone deacetylase 5; conditions: 10 uM
[14] = target: T8, Protein deacetylase HDAC6 (Homo sapiens) (UniProt Q9UBN7); conditions: 5 uM
T8 sequence (whole entry): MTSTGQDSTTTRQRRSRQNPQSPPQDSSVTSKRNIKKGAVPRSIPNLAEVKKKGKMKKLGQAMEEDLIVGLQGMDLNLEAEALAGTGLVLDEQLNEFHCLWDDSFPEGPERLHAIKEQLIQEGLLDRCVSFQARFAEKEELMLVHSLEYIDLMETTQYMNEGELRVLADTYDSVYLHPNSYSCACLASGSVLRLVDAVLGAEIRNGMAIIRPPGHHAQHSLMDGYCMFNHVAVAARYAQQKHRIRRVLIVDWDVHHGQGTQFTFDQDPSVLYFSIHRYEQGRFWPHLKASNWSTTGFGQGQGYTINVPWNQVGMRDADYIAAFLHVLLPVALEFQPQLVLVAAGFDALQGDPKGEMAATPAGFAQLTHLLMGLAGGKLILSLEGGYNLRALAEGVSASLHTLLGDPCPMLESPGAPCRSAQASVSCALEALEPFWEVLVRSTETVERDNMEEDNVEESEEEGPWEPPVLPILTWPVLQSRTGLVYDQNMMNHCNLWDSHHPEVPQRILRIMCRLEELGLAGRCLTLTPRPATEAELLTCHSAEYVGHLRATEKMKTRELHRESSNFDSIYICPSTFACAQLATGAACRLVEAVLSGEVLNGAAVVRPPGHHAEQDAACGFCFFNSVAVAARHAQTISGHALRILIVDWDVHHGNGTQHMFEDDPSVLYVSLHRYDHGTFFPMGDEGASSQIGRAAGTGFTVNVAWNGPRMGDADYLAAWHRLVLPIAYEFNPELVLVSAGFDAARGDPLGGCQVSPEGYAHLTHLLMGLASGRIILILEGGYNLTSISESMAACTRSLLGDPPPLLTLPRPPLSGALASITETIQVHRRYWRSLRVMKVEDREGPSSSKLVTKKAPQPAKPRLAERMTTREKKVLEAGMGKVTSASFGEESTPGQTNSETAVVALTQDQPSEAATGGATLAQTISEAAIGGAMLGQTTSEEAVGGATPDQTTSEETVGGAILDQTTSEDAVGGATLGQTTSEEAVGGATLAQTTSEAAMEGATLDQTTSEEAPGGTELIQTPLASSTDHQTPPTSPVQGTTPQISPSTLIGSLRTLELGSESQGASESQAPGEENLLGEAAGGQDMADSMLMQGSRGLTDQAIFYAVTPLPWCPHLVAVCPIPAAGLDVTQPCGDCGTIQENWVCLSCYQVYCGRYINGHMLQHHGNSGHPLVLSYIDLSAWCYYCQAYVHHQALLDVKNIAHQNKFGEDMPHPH

[15] = target: T5, Histone deacetylase 8 (Homo sapiens); conditions: 10 uM
[16] = target: T9, Histone deacetylase (Homo sapiens) (UniProt Q13547+O15379+Q9UBN7+Q92769+Q9UQL6+Q8WUI4+Q9BY41+Q96DB2+P56524+Q9UKV0+Q969S8); conditions: 200 uM
[17] = target: T9, Histone deacetylase (Homo sapiens); conditions: 200 uM; remark: listed apart in the source
[18] = target: T9, Histone deacetylase (Homo sapiens); conditions: 200 uM; remark: listed apart in the source

Compound	inhibition (Histone deacetylase 9 [1])	inhibition (Histone deacetylase 1)	inhibition (Histone deacetylase 4 [2])	inhibition (Histone deacetylase 5 [3])	inhibition (Histone deacetylase 4 [4])	inhibition [5]	inhibition [6]	inhibition [7]	inhibition [8]	inhibition [9]	inhibition (Histone deacetylase 9 [10])	inhibition [11]	inhibition [12]	inhibition (Histone deacetylase 2)	inhibition (Histone deacetylase 5 [13])	inhibition [14]	inhibition [15]	inhibition [16]	inhibition [17]	inhibition [18]
O=C(CCCC(=O)NCCc1ccccc1)NO	14%	31%	80%	0%	6%	36%	35%	0%	29%	72%	70%	47%	24%	17%	49%	59%	70%			
CCOC(=O)NCCCC(=O)NCCc1ccccc1	10%	7%	86%	0%	4%	10%	16%	5%	0%	78%	75%	74%	0%	6%	66%	16%	73%	inactive	inactive	inactive

Reference: ChEMBL document CHEMBL4428107, “Synthesis and biological evaluation of santacruzamate A analogues for anti-proliferative and immunomodulatory activity” (Bioorg Med Chem, 2016)
